How the values were obtained:
A1 receptors = A1 receptors (Rattus norvegicus, UniProt P25099); assay type: binding; details: Table 3; [3H]PIA, rat brain membranes; read-out: Ki rA1
A2a receptors = target: T1, A2a receptors (Rattus norvegicus, UniProt P30543); experiment: radioligand binding, displacement of specific [3H]CGS 21680 binding in rat striatal membranes
T1 construct: Displacement of specific [^3 H]; from tissue; host or cells: rat striatal membranes

Chains of the proteins cited; added tags and fusions are not shown.
UniProt P25099, whole entry: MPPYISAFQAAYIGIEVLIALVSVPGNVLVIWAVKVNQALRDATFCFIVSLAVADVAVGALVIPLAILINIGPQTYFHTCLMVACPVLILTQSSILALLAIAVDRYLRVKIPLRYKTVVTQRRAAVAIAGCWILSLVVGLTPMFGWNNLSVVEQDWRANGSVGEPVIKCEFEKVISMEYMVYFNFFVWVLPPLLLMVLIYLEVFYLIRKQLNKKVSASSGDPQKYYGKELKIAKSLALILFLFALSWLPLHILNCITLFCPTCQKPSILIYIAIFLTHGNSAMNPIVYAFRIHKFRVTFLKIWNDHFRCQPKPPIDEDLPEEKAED
UniProt P30543, whole entry: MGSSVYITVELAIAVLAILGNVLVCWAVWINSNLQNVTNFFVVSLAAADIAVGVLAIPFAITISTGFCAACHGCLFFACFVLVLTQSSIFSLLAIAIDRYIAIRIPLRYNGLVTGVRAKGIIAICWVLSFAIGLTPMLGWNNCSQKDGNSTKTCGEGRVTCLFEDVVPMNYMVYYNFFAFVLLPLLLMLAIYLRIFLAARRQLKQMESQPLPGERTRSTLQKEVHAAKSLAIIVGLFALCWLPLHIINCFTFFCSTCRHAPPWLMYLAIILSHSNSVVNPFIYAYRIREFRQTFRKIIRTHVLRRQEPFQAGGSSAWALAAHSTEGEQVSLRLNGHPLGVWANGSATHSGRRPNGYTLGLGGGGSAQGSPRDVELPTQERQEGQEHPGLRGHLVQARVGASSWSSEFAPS

CCOc1ccc(-c2oc3cc(OCC)cc(OCC)c3c(=O)c2OCC)c(OCC)c1 [Compound 8, 2',3,4',5,7-Pentaethoxyflavone]
Ki (A1 receptors): 32.3 ± 9.1 µM

COCCOC(=O)C1=C(C)NC(C)=C(C(=O)OC(C)C)C1c1cccc([N+](=O)[O-])c1 (stereo not drawn) [Compound 64, reference compound]
Ki (A2a receptors; Table 9, [3H]CGS 21680, rat striatal membranes, read-out: Ki rA2A): 44.3 µM

CCOC(=O)C1=C(C)NC(c2ccccc2)=C(C(=O)OCc2ccc([N+](=O)[O-])cc2)C1C#Cc1ccccc1 (racemic) [Compound 122g]
inhibition at 100 µM (A2a receptors; read-out: displacement of specific binding rA2A): < 10%

Source: patent publication US6066642A, “Dihydropyridine-, pyridine-, benzopyran-4-one- and triazoloquinazoline derivative, their preparation and their use as adenosine receptor antagonists” (priority 1998, dated 2000)
